The numbers were not newly measured in patent US20040115666A1, “Method for identifying compounds modulating reverse cholesterol transport” (priority 2001, published 2004), which cites them from elsewhere.

Protein sequences, listed by entry. Tags and fused reporters are not part of them. Lines headed by an entry give the natural chain unless they say otherwise; changes in a name come on top.
UniProt Q96RI1: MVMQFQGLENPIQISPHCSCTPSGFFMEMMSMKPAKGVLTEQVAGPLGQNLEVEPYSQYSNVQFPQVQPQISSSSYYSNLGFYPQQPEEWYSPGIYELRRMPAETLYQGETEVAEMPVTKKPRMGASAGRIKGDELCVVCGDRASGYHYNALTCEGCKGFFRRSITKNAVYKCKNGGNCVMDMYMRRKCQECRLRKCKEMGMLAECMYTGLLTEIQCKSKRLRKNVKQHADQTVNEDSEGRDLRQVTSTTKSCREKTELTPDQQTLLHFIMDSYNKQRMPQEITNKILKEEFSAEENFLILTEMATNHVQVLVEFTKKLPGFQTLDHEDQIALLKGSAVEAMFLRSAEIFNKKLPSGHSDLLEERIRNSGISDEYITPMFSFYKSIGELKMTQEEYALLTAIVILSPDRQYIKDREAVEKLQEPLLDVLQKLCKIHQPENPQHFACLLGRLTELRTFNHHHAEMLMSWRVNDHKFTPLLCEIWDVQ

The series deals with T1, FXR (Homo sapiens, UniProt Q96RI1).
T1 sequence (Q96RI1 1-472 isoform Q96RI1-2): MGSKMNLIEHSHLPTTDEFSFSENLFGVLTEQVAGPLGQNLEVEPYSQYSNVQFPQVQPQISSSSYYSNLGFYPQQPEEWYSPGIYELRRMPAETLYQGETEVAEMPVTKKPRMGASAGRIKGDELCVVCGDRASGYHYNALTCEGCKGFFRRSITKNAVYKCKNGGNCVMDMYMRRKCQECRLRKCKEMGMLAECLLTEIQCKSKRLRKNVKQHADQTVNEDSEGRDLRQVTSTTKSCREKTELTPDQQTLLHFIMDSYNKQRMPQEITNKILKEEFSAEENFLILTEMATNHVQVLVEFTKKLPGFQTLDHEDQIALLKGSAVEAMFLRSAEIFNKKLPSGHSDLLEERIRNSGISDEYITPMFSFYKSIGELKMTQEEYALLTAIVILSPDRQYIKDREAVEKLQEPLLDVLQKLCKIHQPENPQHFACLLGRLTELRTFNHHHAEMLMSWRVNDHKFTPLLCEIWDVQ
On the set-up: expressed in transfected cells; host or cells: HepG2. The settings on record: Goodwin et al., Mol Cell., 2000; cited from earlier work.

Molecules are shown by their SMILES.

`CC(C)c1onc(-c2c(Cl)cccc2Cl)c1COc1ccc(/C=C/c2cccc(C(=O)O)c2)c(Cl)c1` [GW4064]: the FXR activation entry is recorded as “strong specific activator”.
